Data: paper PMC11993666 (2025)

Amino acid sequences for entries named in this document (tags omitted). Residues count along the entry.
UniProt P25942, 21-277: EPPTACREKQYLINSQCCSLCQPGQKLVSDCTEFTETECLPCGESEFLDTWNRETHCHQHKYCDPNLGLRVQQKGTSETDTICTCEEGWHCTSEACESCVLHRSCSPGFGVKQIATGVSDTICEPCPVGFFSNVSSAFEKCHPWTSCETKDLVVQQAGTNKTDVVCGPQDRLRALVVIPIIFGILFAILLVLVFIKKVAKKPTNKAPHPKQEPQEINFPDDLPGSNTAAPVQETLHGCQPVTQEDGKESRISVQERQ

What was measured:
Test in all cases: SPR
[1] = biological target: T1, hCD40 (as used in SPR) (human, UniProt P25942 21-277)
[2] = biological target: T1, hCD40 (as used in SPR); remark: listed apart in the source
[3] = biological target: T1, hCD40 (as used in SPR); remark: listed apart in the source
[4] = biological target: T1, hCD40 (as used in SPR); remark: listed apart in the source

| Binder | koff [1] [s⁻¹] | Kd [2] [nM] | Kd [3] [nM] | koff [4] [s⁻¹] |
| --- | --- | --- | --- | --- |
| ChiLob7/4 hIgG2 C232S + K228C κC214S (cross-over + K228C) (antibody, V domains shown, glycosylated at N297 (Fc)) VH: EVQLQQSGPDLVKPGASVKISCKTSGYTFTEYIMHWVKQSHGKSLEWIGGIIPNNGGTSYNQKFKDKATMTVDKSSSTGYMELRSLTSEDSAVYYCTRREVYGRNYYALDYWGQGTLVTVSS VL: DIQMTQTTSSLSASLGDRVTITCSASQGINNYLNWYQQKPDGTVKLLIYYTSSLHSGVPSRFSGSGSGTDYSLTISNLEPEDIATYYCQQYSNLPYTFGGGTKLEIK | 0.000194 | 1.52 | – | – |
| ChiLob7/4 hIgG2 C232S + C233S (antibody, V domains shown, glycosylated at N297 (Fc)) VH: EVQLQQSGPDLVKPGASVKISCKTSGYTFTEYIMHWVKQSHGKSLEWIGGIIPNNGGTSYNQKFKDKATMTVDKSSSTGYMELRSLTSEDSAVYYCTRREVYGRNYYALDYWGQGTLVTVSS VL: DIQMTQTTSSLSASLGDRVTITCSASQGINNYLNWYQQKPDGTVKLLIYYTSSLHSGVPSRFSGSGSGTDYSLTISNLEPEDIATYYCQQYSNLPYTFGGGTKLEIK | – | – | 0.611 | 7.05e-05 |
| ChiLob7/4 hIgG2 C232S κC214S (cross-over) (antibody, V domains shown, glycosylated at N297 (Fc)) VH: EVQLQQSGPDLVKPGASVKISCKTSGYTFTEYIMHWVKQSHGKSLEWIGGIIPNNGGTSYNQKFKDKATMTVDKSSSTGYMELRSLTSEDSAVYYCTRREVYGRNYYALDYWGQGTLVTVSS VL: DIQMTQTTSSLSASLGDRVTITCSASQGINNYLNWYQQKPDGTVKLLIYYTSSLHSGVPSRFSGSGSGTDYSLTISNLEPEDIATYYCQQYSNLPYTFGGGTKLEIK | – | – | 4.74 | 0.000294 |

The remaining lines, values ahead:

| koff [1] [s⁻¹] | Kd [2] [nM] | Kd [3] [nM] | koff [4] [s⁻¹] | Binder |
| --- | --- | --- | --- | --- |
| 0.000221 | 1.82 | – | – | ChiLob7/4 hIgG2 C232S + T222C κE123C + κC214S (cross-over + T222C κE123C) (antibody, V domains shown, glycosylated at N297 (Fc)) VH: EVQLQQSGPDLVKPGASVKISCKTSGYTFTEYIMHWVKQSHGKSLEWIGGIIPNNGGTSYNQKFKDKATMTVDKSSSTGYMELRSLTSEDSAVYYCTRREVYGRNYYALDYWGQGTLVTVSS VL: DIQMTQTTSSLSASLGDRVTITCSASQGINNYLNWYQQKPDGTVKLLIYYTSSLHSGVPSRFSGSGSGTDYSLTISNLEPEDIATYYCQQYSNLPYTFGGGTKLEIK |
| – | – | 6.67 | 0.000372 | ChiLob7/4 hIgG2 C233S κC214S (antibody, V domains shown, glycosylated at N297 (Fc)) VH: EVQLQQSGPDLVKPGASVKISCKTSGYTFTEYIMHWVKQSHGKSLEWIGGIIPNNGGTSYNQKFKDKATMTVDKSSSTGYMELRSLTSEDSAVYYCTRREVYGRNYYALDYWGQGTLVTVSS VL: DIQMTQTTSSLSASLGDRVTITCSASQGINNYLNWYQQKPDGTVKLLIYYTSSLHSGVPSRFSGSGSGTDYSLTISNLEPEDIATYYCQQYSNLPYTFGGGTKLEIK |

Where two headings read alike, the source gives them in different places.
